Literature values in article PMC9186491, “Novel Small Molecule Tyrosine Kinase 2 Pseudokinase Ligands Block Cytokine-Induced TYK2-Mediated Signaling Pathways” (Frontiers in Immunology, 2022).

Test system: moderate to severe psoriasis patients
Design: method as in PMID 30205746
Details: phase II, 267 patients, placebo group 51%; cited from earlier work

Deucravacitinib
Most common adverse events in treated patients: 55-80%
